# What was measured:
# Assay type in all cases: cell-based; call rule not given here
# [1] = biological target: T1, Voltage-gated inwardly rectifying potassium channel KCNH2 (Homo sapiens, UniProt Q12809); test: Binding affinity to wild-type human ERG expressed in HEK293 cells assessed as blockade of membrane current at 0.02 uM by whole cell patch clamp method; conditions: hek293, 0.02 µM
# [2] = biological target: Voltage-gated inwardly rectifying potassium channel KCNH2 (Homo sapiens, UniProt Q12809, Y652A); test: Binding affinity to human ERG Y652A mutant expressed in HEK293 cells assessed as blockade of membrane current at 0.2 uM by whole cell patch clamp method; conditions: hek293, 0.2 µM
# [3] = biological target: T1, Voltage-gated inwardly rectifying potassium channel KCNH2; test: Binding affinity to wild-type human ERG expressed in HEK293 cells assessed as blockade of membrane current at 0.05 uM by whole cell patch clamp method; conditions: hek293, 0.05 µM
# [4] = biological target: Voltage-gated inwardly rectifying potassium channel KCNH2 (Homo sapiens, UniProt Q12809, F656A); test: Binding affinity to human ERG F656A mutant expressed in HEK293 cells assessed as blockade of membrane current at 0.05 uM by whole cell patch clamp method; conditions: hek293, 0.05 µM
structure (smiles),measurement,setting,value
COc1cc(N)c(Cl)cc1C(=O)NC1CCN(CCCOc2ccc(F)cc2)CC1OC (centres undefined) [CISAPRIDE],Activity,[1],Active
same,Activity,[2],Not Active
same,Activity,[3],Active
same,Activity,[4],Active
